Experimental data: patent US20260382574A1, “CRYSTAL OF SPIRO COMPOUND AND PREPARATION METHOD THEREFOR” (published 2026)

Assays:
[1] = Chemical stability investigation test; settings: for Initial purity: before storage; for chemical stability: various influencing factors, form B 12 days, form A 12 and 30 days
413 kinases = assay: KinaseProfiler, selectivity against 413 kinases; settings: compound 10 μM; ATP 10 μM; all of 413 kinases
[2] = tested on: 47 safety-related targets; assay: SAFETYscan, effect on 47 safety-related targets
cardiovascular system = assay: Safety pharmacology: effect on cardiovascular system in cynomolgus monkeys; settings: 40, 160 and 600 mg/kg/day, nasogastric twice daily, 14 days

SMILES	Initial purity [1] [%]	chemical stability [1]	inhibition rate (413 kinases)	EC50 ([2]; all of 47 safety-related targets, inhibition or activation) [µM]	inhibition or activation effect ([2]; at 100 μM, 47 safety-related targets)	arrhythmia (cardiovascular system)	cardiovascular system changes (cardiovascular system)	ECG parameters or blood pressure (cardiovascular system; throughout the entire experiment)
CC(C)(C)[C@H](NC(=O)C(F)(F)F)C(=O)N1CC2(C[C@H]1C(=O)N[C@H](C#N)C[C@@H]1CCNC1=O)SCCS2 [Crystal form B of methyl tert-butyl ether solvate of compoun]	98.41	stable in chemical stability with no significant change in content						
CC(C)(C)[C@H](NC(=O)C(F)(F)F)C(=O)N1CC2(C[C@H]1C(=O)N[C@H](C#N)C[C@@H]1CCNC1=O)SCCS2 [Crystal form A of compound of formula (I)]	98.78	stable in chemical stability with no significant change in content						
CC(C)(C)[C@H](NC(=O)C(F)(F)F)C(=O)N1CC2(C[C@H]1C(=O)N[C@H](C#N)C[C@@H]1CCNC1=O)SCCS2			less than 30%	> 100	no significant inhibition or activation effect	no test sample-related arrhythmia was observed	no test sample-related cardiovascular system changes were observed	no test sample-related changes in ECG parameters or blood pressure were observed
